Consider one molecule from paper PMC10404700, “A new member of the flavodoxin superfamily from Fusobacterium nucleatum that functions in heme trafficking and reduction of anaerobilin” (The Journal of Biological Chemistry, 2023).

Sequences of proteins named here, by UniProt entry; tags and fusion partners are left off.
UniProt Q8RFD5, entry or part of it: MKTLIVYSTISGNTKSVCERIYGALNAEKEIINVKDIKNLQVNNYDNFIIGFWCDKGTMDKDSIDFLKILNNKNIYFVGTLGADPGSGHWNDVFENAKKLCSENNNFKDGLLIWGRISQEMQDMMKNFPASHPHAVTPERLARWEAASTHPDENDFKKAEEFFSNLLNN

The target of the assay is T1, HmuF (Fusobacterium nucleatum, UniProt Q8RFD5).
T1 construct: gene C7Y58_06900
The experiment in a line: biochemical.

For orientation: Kd means the constant that tells how readily two partners part at equilibrium. Read a high Kd as lower affinity. The molecule `C=CC1=C(C)C2=Cc3c(C=C)c(C)c4[n]3[Fe]([Cl])[n]3c(c(C)c(CCC(=O)O)c3=CC3=NC(=C4)C(C)=C3CCC(=O)O)=CC1=N2` [Fe^3+-hemin] had a dissociation constant Kd of 9.1 ± 4.7 nM.
